Test results reported in ChEMBL document CHEMBL1149372, “Discovery of novel and potent thiazoloquinazolines as selective Aurora A and B kinase inhibitors” (J Med Chem, 2006).

The chains behind the UniProt entries cited, without tags or fusion partners.
UniProt P53350, whole entry: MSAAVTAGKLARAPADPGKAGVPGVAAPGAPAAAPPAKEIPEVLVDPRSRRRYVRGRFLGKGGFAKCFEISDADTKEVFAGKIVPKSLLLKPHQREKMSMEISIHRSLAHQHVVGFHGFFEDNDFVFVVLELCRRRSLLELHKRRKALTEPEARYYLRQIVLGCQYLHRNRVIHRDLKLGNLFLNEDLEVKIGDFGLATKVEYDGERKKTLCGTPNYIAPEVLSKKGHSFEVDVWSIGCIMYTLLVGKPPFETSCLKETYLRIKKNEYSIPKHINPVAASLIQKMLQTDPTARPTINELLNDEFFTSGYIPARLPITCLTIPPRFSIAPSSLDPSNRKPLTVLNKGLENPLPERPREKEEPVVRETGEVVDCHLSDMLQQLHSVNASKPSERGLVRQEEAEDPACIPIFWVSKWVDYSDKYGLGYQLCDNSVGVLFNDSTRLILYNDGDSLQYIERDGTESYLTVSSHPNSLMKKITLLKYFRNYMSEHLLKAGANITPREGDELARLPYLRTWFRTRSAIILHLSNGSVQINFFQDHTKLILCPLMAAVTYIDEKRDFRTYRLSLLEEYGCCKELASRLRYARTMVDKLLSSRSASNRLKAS
UniProt P06493, whole entry: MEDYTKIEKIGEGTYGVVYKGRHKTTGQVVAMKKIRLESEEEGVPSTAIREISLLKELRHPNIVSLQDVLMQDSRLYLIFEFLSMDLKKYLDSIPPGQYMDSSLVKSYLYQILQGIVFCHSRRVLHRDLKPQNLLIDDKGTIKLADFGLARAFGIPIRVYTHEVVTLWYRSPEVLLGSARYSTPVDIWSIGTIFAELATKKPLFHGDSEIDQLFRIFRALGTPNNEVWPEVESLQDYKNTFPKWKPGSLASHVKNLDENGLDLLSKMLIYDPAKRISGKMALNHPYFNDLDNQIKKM

Columns and labels:
[1] = target: Serine/threonine-protein kinase PLK1 (Homo sapiens, UniProt P53350); test: Inhibition of in vitro Plk1 kinase activity
[2] = target: Cyclin-dependent kinase 1 (Homo sapiens, UniProt P06493); test: Inhibition of in vitro CDK1 kinase activity

IC50 [1]: > 10 µmol
IC50 [2]: > 10 µmol
Structure (SMILES): COc1cc2c(Nc3ccc(NC(=O)c4ccccc4)cc3)ncnc2cc1OCCCN1CCOCC1
